Measurements reported in EP3932918A1, “EUTECTIC CRYSTAL FORMED BY APIXABAN AND CARBOXYLIC ACID, AND PREPARATION METHOD THEREFOR” (Zhejiang Tianyu Pharmaceutical Co., Ltd., priority 2019, dated 2021).

Test: Dissolution rate test of Apixaban/carboxylic acid co-crystal (paddle method, Chinese Pharmacopoeia guidelines; equilibrium solubility in dissolution medium)
Type: physicochemical
Settings: relative to Apixaban; dissolution medium 0.1mol/L hydrochloric acid, 37±0.5°C, paddle method 100rpm, 900ml, 500 mg sample powder
Method: Test Example 1: Dissolution rate test of Apixaban/carboxylic acid co-crystal
According to the dissolution rate test guidelines in the current Chinese Pharmacopoeia, a dissolution rate experiment was designed to respectively investigate the dissolution rates of the five Apixaban/carboxylic acid co-crystals prepared by the present invention. The specific scheme is as follows:
Table 6 Dissolution equipment and parameters
0.1mol/L hydrochloric acid solution: 9ml of hydrochloric acid was added into 1000ml of water and stirred well.
After the dissolution conditions were reached, 500 mg of sample powder were weighed and put into a dissolution cup, rotated, and immediately counted the time, after 1, 2, 3, 4, 6, 8, 10, 12, 14, 16, 18, 20, 22 and 24 hours, sampled with a sampling needle equipped with a 10µm polymeric polyethylene filter membrane, and filtered on-line through a 0.45µm polyvinylidene fluoride (PVDF) filter membrane.

Q: Which “dissolution rate (times that of Apixaban)” value does the source give for “Apixaban/L-tartaric acid co-crystal [crystal form V]” here?
A: 1.45 times

Q: Which “dissolution rate (times that of Apixaban)” value does the source give for “Apixaban/maleic acid co-crystal [crystal form III]” here?
A: 1.53 times
